The target in the assay is Cannabinoid receptor 1 (Rattus norvegicus, UniProt P20272).

Amino acid sequences for entries named in this document (tags omitted).
UniProt P20272, whole entry: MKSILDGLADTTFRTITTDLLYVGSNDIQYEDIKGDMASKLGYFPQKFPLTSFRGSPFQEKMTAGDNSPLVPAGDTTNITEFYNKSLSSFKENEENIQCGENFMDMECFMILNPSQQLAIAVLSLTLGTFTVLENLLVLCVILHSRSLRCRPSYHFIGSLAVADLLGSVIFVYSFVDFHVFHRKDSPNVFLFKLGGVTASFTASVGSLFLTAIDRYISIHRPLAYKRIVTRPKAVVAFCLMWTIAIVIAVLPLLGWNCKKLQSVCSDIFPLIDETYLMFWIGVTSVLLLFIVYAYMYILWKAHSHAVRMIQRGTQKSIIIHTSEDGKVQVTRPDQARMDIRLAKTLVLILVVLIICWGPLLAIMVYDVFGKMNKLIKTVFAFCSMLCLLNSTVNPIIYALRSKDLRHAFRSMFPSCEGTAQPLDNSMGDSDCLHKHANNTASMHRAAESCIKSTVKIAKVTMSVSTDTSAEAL

Several values for one entry are separate records, joined by “and”; a condition that tells them apart may be missing. Equal values may be shown once.

What is called Ki is the equilibrium dissociation constant of an inhibitor or competing ligand from its target. A low value points to tighter binding. For the compound `CCCCC/C=C\C/C=C\C/C=C\C/C=C\CCCC(=O)NC(C)CO` (stereo unspecified), the Ki was 155 nM and 630 nM and 1100 nM and 1000 nM and 330 nM and 150 nM and 240 nM.
